The target of the assay is Monoglyceride lipase (Homo sapiens, UniProt Q99685). The experiment in a line: Inhibition of human recombinant MAGL pre-incubated for 5 mins before MAGL substrate addition and further incubated for 10 mins.

By UniProt entry, the sequences of proteins in these tests, tags left out.
UniProt Q99685, whole entry: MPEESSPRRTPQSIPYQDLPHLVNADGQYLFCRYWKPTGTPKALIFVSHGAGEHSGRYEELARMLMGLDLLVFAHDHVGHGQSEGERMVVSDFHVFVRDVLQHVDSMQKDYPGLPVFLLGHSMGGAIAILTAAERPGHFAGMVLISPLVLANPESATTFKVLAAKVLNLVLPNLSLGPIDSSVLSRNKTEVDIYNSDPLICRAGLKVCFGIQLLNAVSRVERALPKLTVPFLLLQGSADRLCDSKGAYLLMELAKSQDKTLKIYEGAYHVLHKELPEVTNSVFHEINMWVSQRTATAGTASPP

Take `O=C(Oc1ccc([N+](=O)[O-])cc1)N1CCN(Cc2cccc(Oc3ccccc3)c2)CC1`: the IC50 came out at 0.205 µM.

The IC50 is the point on the concentration scale where inhibition reaches its midpoint.

The values are drawn from ChEMBL document CHEMBL4613273, “Discovery of Aryl Formyl Piperidine Derivatives as Potent, Reversible, and Selective Monoacylglycerol Lipase Inhibitors” (J Med Chem, 2020).
